The results in this text go back to PubChem BioAssay AID488890 (Southern Research Specialized Biocontainment Screening …, 2010).

The term IC50 denotes the concentration that inhibits the measured activity by half.

The experiment deals with Mycobacterium tuberculosis non-replicating, growth inhibition. Put plainly: growth inhibition of non-replicating M. tuberculosis (AID 488890).

Results filed as inconclusive are left out.

`Cc1[nH]n(-c2ccccc2)c(=O)c1C=Nc1ccc(S(=O)(=O)Nc2nccs2)cc1`: the IC50 is 4.23 µM.
For `O=C(Nc1ccc(Br)cn1)c1ccc([N+](=O)[O-])o1` the value was 0.92 µM; for `O=C(Nc1cccnc1)c1ccc([N+](=O)[O-])s1`, 2.81 µM.
